# Results reported in PubChem BioAssay AID485360 (National Center for Advancing Translational Sciences (NCATS), 2010).
# Amino acid sequences for entries named in this document (tags omitted).
# UniProt Q9Y468, whole entry: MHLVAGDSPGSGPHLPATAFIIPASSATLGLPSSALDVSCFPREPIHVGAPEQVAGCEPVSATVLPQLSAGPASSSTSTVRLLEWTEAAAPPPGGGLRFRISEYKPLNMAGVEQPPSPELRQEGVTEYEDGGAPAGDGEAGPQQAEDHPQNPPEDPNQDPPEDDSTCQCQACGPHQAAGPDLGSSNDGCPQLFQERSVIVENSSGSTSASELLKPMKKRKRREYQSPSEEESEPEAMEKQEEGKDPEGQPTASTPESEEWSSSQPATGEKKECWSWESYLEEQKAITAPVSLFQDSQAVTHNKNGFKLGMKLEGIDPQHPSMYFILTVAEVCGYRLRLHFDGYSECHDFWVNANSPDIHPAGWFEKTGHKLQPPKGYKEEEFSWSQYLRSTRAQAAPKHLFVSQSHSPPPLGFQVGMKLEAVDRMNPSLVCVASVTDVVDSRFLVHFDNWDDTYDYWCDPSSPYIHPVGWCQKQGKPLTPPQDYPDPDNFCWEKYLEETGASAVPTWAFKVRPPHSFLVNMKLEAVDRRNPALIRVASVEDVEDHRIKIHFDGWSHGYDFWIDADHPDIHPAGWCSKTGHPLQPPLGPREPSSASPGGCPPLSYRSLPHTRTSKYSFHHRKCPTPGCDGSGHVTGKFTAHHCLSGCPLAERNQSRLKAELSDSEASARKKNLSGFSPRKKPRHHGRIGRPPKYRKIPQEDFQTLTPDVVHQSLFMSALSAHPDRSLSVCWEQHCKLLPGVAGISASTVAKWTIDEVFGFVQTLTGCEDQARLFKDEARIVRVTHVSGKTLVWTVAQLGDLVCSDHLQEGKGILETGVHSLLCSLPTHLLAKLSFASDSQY
# This is a selection; strong and weak results do not stand in their true shares. Some tests of the compounds listed are not included; inactive here does not mean inactive elsewhere. Results filed as inconclusive are left out. Calls of active or inactive are those of the source. Calls come from the whole dose curve; as a rule, active = well fitted inhibition curve with a large enough effect; inconclusive = small, poorly fitted or top-dose-only effect; inactive = no such curve, though single readings can be large or run the other way.
# Target: Lethal(3)malignant brain tumor-like protein 1 (Homo sapiens) (UniProt Q9Y468)
# Assay: qHTS Assay for the Inhibitors of L3MBTL1; note: nearly all actives have a fitted effect of over 60% in size
# Settings: AlphaScreen L3MBTL1–H3K9me1 peptide binding; at 57.1 µM (top of the series)
# % is set by controls: 0 for no effect and ±100 for the full control effect.
row,SMILES,"activity, negative = inhibition"
1,O=C(OC1CN2CCC1CC2)C(CO)(c1ccccc1)c1ccccc1 (stereo not given),inactive: 2.03%
2,COc1ccc(Br)c(C(=O)NCC2(N3CCCCC3)CCCCC2)c1,inactive: -1.67%
3,CN(C)c1cccc(C(=O)NCC2(N(C)C)CCCCC2)c1,inactive: -0.422%
4,COc1cccc(C(=O)NCC2(N3CCCCC3)CCCCC2)c1,inactive: -5.28%
5,Cc1ccccc1C(=O)NCC1(N2CCCCC2)CCCCC1,inactive: -4.33%
6,CN(C)C1CCCC1OC(=O)C(O)(c1ccccc1)c1ccccc1 (stereo not given),inactive: 10.5%
7,C=CCN1CCN(CCOC(=O)C(O)(c2ccccc2)c2ccccc2)CC1,inactive: -8.1%
8,CCN1CCCC(OC(=O)C2(O)c3ccccc3C=Cc3ccccc32)C1 (stereo not given),inactive: -2.85%
9,CC(C)N1C(=O)CC2(CCN(CCOC(=O)C(O)(c3ccccc3)c3ccccc3)CC2)C1=O,inactive: 8.19%
10,CCN(CC)CC(C)C(C)OC(=O)C(O)(c1ccccc1)c1ccccc1 (stereo not given),inactive: 3.04%
